## Experimental water solubility values from OPERA 2.9

Water solubility is log10 of mol/L, nominally at 25 °C; higher is more soluble.

{"smiles": "CN(C)C(=S)N(C)C", "name": "1,1,3,3-Tetramethyl-2-thiourea", "water solubility (log10 mol/L)": "-1.389"}
{"smiles": "CCCCCCCOc1ccc(C(C)(c2ccccc2)c2ccc(OCCCCCCC)cc2)cc1", "water solubility (log10 mol/L)": "-9.044"}
{"smiles": "N[C@@H](CCSC[C@H](N)C(=O)O)C(=O)O", "name": "S-(2-Amino-2-carboxyethyl)homocysteine", "water solubility (log10 mol/L)": "-1.004"}
{"smiles": "O=C(CCS)OCCOC(=O)CCS", "name": "1,2-Ethanediyl 3'-mercaptopropionate", "water solubility (log10 mol/L)": "-1.829"}
{"smiles": "CN1CCCN=C1COC(=O)C(O)(c1ccccc1)C1CCCCC1", "stereo": "stereo not drawn", "name": "Oxyphencyclimine", "water solubility (log10 mol/L)": "-3.784"}
{"smiles": "C[C@]12CC=C3C4=C(CC[C@H]3[C@@H]1CCC2=O)CC1(CC4)OCCO1", "name": "Estradiene dione-3-keta", "water solubility (log10 mol/L)": "-4.418"}
{"smiles": "CC(C)(C)c1cc(CCC(=O)O)ccc1O", "name": "3-(3-tert-Butyl-4-hydroxyphenyl)propanoic acid", "water solubility (log10 mol/L)": "-2.198"}
{"smiles": "CC(C)(C)S", "name": "t-Butyl mercaptan", "water solubility (log10 mol/L)": "-1.788"}
{"smiles": "CC1=CCC(C=CC(C)(C)C(C)O)C1(C)C", "stereo": "stereo not drawn", "water solubility (log10 mol/L)": "-5.785"}
{"smiles": "CN(C)C(=O)Nc1cccc(Cl)c1", "name": "Urea, N'-(3-chlorophenyl)-N,N-dimethyl-", "water solubility (log10 mol/L)": "-2.36"}
{"smiles": "FC(F)OC(Cl)C(F)(F)F", "stereo": "stereo not drawn", "name": "Isoflurane", "water solubility (log10 mol/L)": "-1.617"}
{"smiles": "CCC(C)=CCCC(C)=O", "name": "5-Octen-2-one, 6-methyl-", "water solubility (log10 mol/L)": "-2.193"}
{"smiles": "CC1CCC(C(C)(C)O)C(O)C1", "stereo": "stereo not drawn", "name": "p-Menthane-3,8-diol", "water solubility (log10 mol/L)": "-2.77"}
{"smiles": "CC(=O)OC(C)(C)Cc1ccccc1", "name": "Dimethylbenzylcarbinyl acetate", "water solubility (log10 mol/L)": "-2.395"}
{"smiles": "CC1(C)O[C@@H]2C[C@H]3[C@@H]4C[C@H](F)C5=CC(=O)C=C[C@]5(C)[C@@]4(F)[C@@H](O)C[C@]3(C)[C@]2(C(=O)CO)O1", "name": "Fluocinolone acetonide", "water solubility (log10 mol/L)": "-3.918"}
{"smiles": "C=CC(=O)OCC(C)OCCOCC(CC)(COCCOCC(C)OC(=O)C=C)COCCOC(C)COC(=O)C=C", "stereo": "stereo not drawn", "water solubility (log10 mol/L)": "-3.365"}
{"smiles": "CCn1c2ccccc2c2ccccc21", "name": "9-Ethylcarbazole", "water solubility (log10 mol/L)": "-6.813"}
{"smiles": "CC1=C(/C=C/C(C)=C/C=C/C(C)=C/C=C/C=C(C)/C=C/C=C(C)/C=C/C2=C(C)CCCC2(C)C)C(C)(C)CCC1", "name": "Beta carotene", "water solubility (log10 mol/L)": "-5.952"}
{"smiles": "C=CC(C)(O)CCCC(C)C", "stereo": "stereo not drawn", "name": "1-Octen-3-ol, 3,7-dimethyl-", "water solubility (log10 mol/L)": "-2.466"}
{"smiles": "COC(=O)[C@@H](O)[C@@H](O)C(=O)O", "name": "(2R,3S)-2,3-Dihydroxy-4-methoxy-4-oxobutanoic acid", "water solubility (log10 mol/L)": "0.183"}
{"smiles": "C=C[C@@](C)(/C=C/c1ccc(O)cc1)CCC=C(C)C", "name": "Bakuchiol", "water solubility (log10 mol/L)": "-6.337"}
{"smiles": "CC(=O)Nc1ccc(Br)cc1", "name": "Acetamide, N-(4-bromophenyl)-", "water solubility (log10 mol/L)": "-2.899"}
{"smiles": "CC(=O)OCCCc1ccccc1", "name": "3-Phenylpropyl acetate", "water solubility (log10 mol/L)": "-2.658"}
{"smiles": "OCCC(F)(F)C(F)(F)C(F)(F)C(F)(F)F", "name": "4:2 Fluorotelomer alcohol", "water solubility (log10 mol/L)": "-2.719"}
{"smiles": "Cc1nc2ccccn2c(=O)c1CCCl", "name": "3-(2-Chloroethyl)-2-methyl-4H-pyrido(1,2-a)pyrimidin-4-one", "water solubility (log10 mol/L)": "-2.471"}
{"smiles": "C=C(C)C(=O)OCCCCCCCCCCCCOC(=O)C(=C)C", "name": "1,12-Dodecanediyl bismethacrylate", "water solubility (log10 mol/L)": "-7.484"}
{"smiles": "CCCCCCCCCCOC(C)=O", "name": "Decyl acetate", "water solubility (log10 mol/L)": "-4.986"}

Excerpt, the opening 3 entries:

{"smiles": "CN(C)C(=S)N(C)C", "name": "1,1,3,3-Tetramethyl-2-thiourea", "water solubility (log10 mol/L)": "-1.389"}
{"smiles": "CCCCCCCOc1ccc(C(C)(c2ccccc2)c2ccc(OCCCCCCC)cc2)cc1", "water solubility (log10 mol/L)": "-9.044"}
{"smiles": "N[C@@H](CCSC[C@H](N)C(=O)O)C(=O)O", "name": "S-(2-Amino-2-carboxyethyl)homocysteine", "water solubility (log10 mol/L)": "-1.004"}

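The OPERA project collected these measurements from public sources as training and test data for property models. One number stands for a compound and property, with no spread given. Method, purity and exact conditions of the single measurements are not given. A value may pool stereoisomers or salt forms, and the file does not say which form was measured. Unmarked limits or estimates from the upstream databases cannot be ruled out.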

From the experimental data distributed with OPERA 2.9.